# From patent publication US8008291B2 (Mimetica Pty Ltd, priority 2008, dated 2011)
# Protein sequences, listed by entry. Tags and fused reporters are not part of them. Lines headed by an entry give the natural chain unless they say otherwise; changes in a name come on top.
# UniProt P33032: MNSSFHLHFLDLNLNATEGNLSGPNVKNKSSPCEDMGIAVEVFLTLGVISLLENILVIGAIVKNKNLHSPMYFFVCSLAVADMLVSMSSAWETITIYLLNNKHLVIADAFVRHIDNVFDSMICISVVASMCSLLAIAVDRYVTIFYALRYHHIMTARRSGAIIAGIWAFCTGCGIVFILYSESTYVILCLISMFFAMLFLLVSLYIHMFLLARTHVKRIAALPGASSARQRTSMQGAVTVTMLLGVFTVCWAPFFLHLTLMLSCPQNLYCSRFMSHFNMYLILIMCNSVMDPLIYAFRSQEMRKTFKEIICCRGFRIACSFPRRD
# UniProt P41968: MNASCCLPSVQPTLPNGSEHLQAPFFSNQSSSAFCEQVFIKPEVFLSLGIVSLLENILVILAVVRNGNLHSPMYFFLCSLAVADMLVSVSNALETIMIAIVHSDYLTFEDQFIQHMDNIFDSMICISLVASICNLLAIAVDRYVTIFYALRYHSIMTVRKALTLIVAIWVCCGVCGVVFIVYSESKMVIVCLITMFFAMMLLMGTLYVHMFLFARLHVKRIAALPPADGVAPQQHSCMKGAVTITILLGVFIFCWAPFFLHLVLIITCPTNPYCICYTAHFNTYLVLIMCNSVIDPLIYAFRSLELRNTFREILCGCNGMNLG
# UniProt Q01726: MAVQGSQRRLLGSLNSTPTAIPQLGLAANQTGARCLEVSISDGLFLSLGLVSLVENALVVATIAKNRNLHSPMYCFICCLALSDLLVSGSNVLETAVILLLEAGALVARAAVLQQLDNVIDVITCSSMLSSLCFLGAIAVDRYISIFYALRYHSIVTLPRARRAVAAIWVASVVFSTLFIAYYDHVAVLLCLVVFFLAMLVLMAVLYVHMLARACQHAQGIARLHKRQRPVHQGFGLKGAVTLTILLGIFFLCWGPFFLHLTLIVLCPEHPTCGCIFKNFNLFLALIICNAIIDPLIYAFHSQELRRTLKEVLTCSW
# UniProt P32245, whole entry: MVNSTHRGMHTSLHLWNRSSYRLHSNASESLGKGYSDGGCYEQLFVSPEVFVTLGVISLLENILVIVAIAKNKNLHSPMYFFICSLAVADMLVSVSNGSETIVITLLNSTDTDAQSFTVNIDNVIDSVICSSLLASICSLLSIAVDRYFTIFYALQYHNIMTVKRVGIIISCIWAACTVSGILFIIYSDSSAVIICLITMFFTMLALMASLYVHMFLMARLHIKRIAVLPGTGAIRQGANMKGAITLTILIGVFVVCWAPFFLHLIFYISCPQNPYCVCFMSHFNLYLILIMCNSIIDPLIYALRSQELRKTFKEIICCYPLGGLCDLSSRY
# What was measured:
# human MC5R (whole cells) = target: T1, human MC5R (whole cells) (Homo sapiens, UniProt P33032); assay: MC5R radioligand binding, human MC5R whole cells
# T1 construct: host or cells: HEK 293
# Method: • Na^125I (0.5 mCi, 17.4 Ci/mg) was added to 50 μL sodium phosphate (50 mM, pH7.4) in an eppendorf tube precoated with IODOGEN. After incubation for 10 mins the phosphate buffer containing the iodine was added to NDP-MSH (10 ul at 1 mg/mL) in a separate eppendorf tube. This was incubated for a further 10 mins. The iodinated NDP-MSH was purified by HPLC on a Zorbax SB 300 column using solvent A: 0.05% TFA and solvent B: 90% acetonitrile 0.045% TFA with a linear gradient, 0-67% B over 60 mins. […] Resuspended membranes were kept on ice until they were added to the wells of the plate. Binding Protocol for 400 microassays per vial: • Assays were performed in 96 well polypropylene plates. […] This was incubated for 1 hr at 37° C. Non-specific binding was determined with 3 mM NDP-MSH. Plates were filtered using a Tomtec cell harvester with GF/A filters (Wallac) (presoaked in 0.6% polyethylenimine) and washed three times with 1.0 mL ice-cold wash buffer (the above incubation buffer without 1,10-phenanthroline and Complete™ protease inhibitor tablet). […] Prepared filters were counted in cassettes in a Microbeta Trilux (Wallac) for 1 min. […] Data analysis was performed using GraphPad Prism 4, employing competition binding with a single site model and a fixed Hill coefficient.
# hMC3R = hMC3R (Homo sapiens, UniProt P41968); assay: Human MC3R radioligand binding assay; conditions: hMCR binding selectivity, [125I] NDP-MSH, membranes
# Method: (§1) • Na^125I (0.5 mCi, 17.4 Ci/mg) was added to 50 μL sodium phosphate (50 mM, pH7.4) in an eppendorf tube precoated with IODOGEN. After incubation for 10 mins the phosphate buffer containing the iodine was added to NDP-MSH (10 ul at 1 mg/mL) in a separate eppendorf tube. This was incubated for a further 10 mins. The iodinated NDP-MSH was purified by HPLC on a Zorbax SB 300 column using solvent A: 0.05% TFA and solvent B: 90% acetonitrile 0.045% TFA with a linear gradient, 0-67% B over 60 mins. The ^125I NDP-MSH eluted at 52 min after the unlabeled starting material (48 min) and was counted and stored in the freezer. […] Reagents: • Incubation buffer: 25 mM HEPES-KOH (pH 7.0), 1.5 mM CaCl2, 1 mM MgSO4, 0.1M NaCl, 1 mM 1,10-phenanthroline, and 1 Complete™ protease inhibitor tablet/100 mL (Roche, catalog number 1873580) • Perkin Elmer frozen hMC5 membranes: catalog number RBXMC5M400UA, 0.4 mL/vial; 400 microassays/vial 0.78 mg/mL protein concentration Vials of frozen membranes were thawed rapidly immediately before use, diluted with binding buffer and vortexed. Resuspended membranes were kept on ice until they were added to the wells of the plate. Binding Protocol for 400 microassays per vial: • Assays were performed in 96 well polypropylene plates. […] This was incubated for 1 hr at 37° C. […] Non-specific binding just under 5%. […]
# human MC5R [1] = target: T2, human MC5R (Homo sapiens, UniProt P33032); assay: cAMP stimulation assay, agonism, HEK 293 cells expressing human MC5R; format: cell-based
# T2 construct: host or cells: HEK 293
# human MC5R [2] = target: T2, human MC5R; assay: cAMP assay, antagonism of alpha-MSH, HEK 293 cells expressing human MC5R; format: cell-based; conditions: antagonism of 10^−6 M alpha-MSH
# human MC5R (hMC5R) = target: T3, human MC5R (hMC5R) (Homo sapiens, UniProt P33032); assay: Human MC5R radioligand binding assay (membranes, [125I] NDP-MSH displacement); conditions: tested as trifluoroacetate or hydrochloride salts, or free bases
# T3 construct: purchased Perkin Elmer RBXMC5M400UA
# Method: Assessments of compound binding to human MC5R (hMC5R) ) by displacement of an ^125I-labeled NDP-MSH receptor ligand peptide were performed essentially as described in the data sheets produced by Perkin Elmer to accompany their frozen hMC5R membranes (Perkin Elmer catalog number RBXMC5M400UA).
# [^125I] NDP-MSH: radiolabeled in house and purified by HPLC:
# (§2) • Na^125I (0.5 mCi, 17.4 Ci/mg) was added to 50 μL sodium phosphate (50 mM, pH7.4) in an eppendorf tube precoated with IODOGEN. After incubation for 10 mins the phosphate buffer containing the iodine was added to NDP-MSH (10 ul at 1 mg/mL) in a separate eppendorf tube. This was incubated for a further 10 mins. The iodinated NDP-MSH was purified by HPLC on a Zorbax SB 300 column using solvent A: 0.05% TFA and solvent B: 90% acetonitrile 0.045% TFA with a linear gradient, 0-67% B over 60 mins. […] Resuspended membranes were kept on ice until they were added to the wells of the plate. Binding Protocol for 400 microassays per vial: • Assays were performed in 96 well polypropylene plates. […] This was incubated for 1 hr at 37° C.
# hMC1R = hMC1R (Homo sapiens, UniProt Q01726); assay: Human MC1R radioligand binding assay; conditions: hMCR binding selectivity, [125I] NDP-MSH, membranes
# Method: as §1
# hMC4R = hMC4R (Homo sapiens, UniProt P32245); assay: Human MC4R radioligand binding assay; conditions: hMCR binding selectivity, [125I] NDP-MSH, membranes
# Method: as §2
# Radioligand binding assays were carried out using commercial or in-house prepared hMC1R, hMC3R and hMC4R membranes and [125I]
# The homogenisation and ice incubation was repeated three times. The mixture was then centrifuged at 1260×g for 5 mins. […] This was centrifuged at 30,000×g for 90 mins at 4° C.
IC50 (human MC5R (whole cells)),IC50 (hMC3R),EC50 (human MC5R [1]),IC50 (human MC5R [2]),IC50 (human MC5R (hMC5R)),IC50 (hMC1R),IC50 (hMC4R),SMILES
219 nM,1750 nM,> 10000 nM,400 nM,–,–,–,"N=C(N)NCCC[C@@H]1N[C@H](CNC(=O)c2ccc3ccccc3c2)CCN(CC(c2ccccc2)c2ccccc2)C1=O [Compound 105, N-(((3S,5S)-1-(2,2-diphenylethyl)-3-(3-guanidinopropyl)-2-oxo-1,4-diazepan-5-yl)methyl)-2-naphthamide]"
127 nM,2240 nM,> 10000 nM,70 nM,< 100 nM,9220 nM,3490 nM,"O=C(NC[C@@H]1CCN(CC(c2ccccc2)c2ccccc2)C(=O)[C@H](CCCN2CCCCC2)N1)c1ccc2ccccc2c1 [Compound 64, N-(((3S,5S)-1-(2,2-diphenylethyl)-2-oxo-3-(3-(piperidin-1-yl)propyl)-1,4-diazepan-5-yl)methyl)-2-naphthamide]"
